Measurements reported in patent publication US20240342239A1, “TREATMENT OF NON-CYSTIC FIBROSIS BRONCHIECTASIS” (Zambon S.P.A., priority 2021, published 2024).

Test system: subjects with NCFB chronically infected with P. aeruginosa

colistimethate sodium [CMS]
safety and tolerability (CMS by I-neb): safe and well tolerated
bronchospasm observed (clinically or spirometrically determined): 2.8%
antibiotic resistance observed (in vivo): 1%
development of P. aeruginosa resistance to colistin sulphate (in vivo): 1%
development of colistimethate resistance, active vs placebo groups (in vivo): no data suggestive of development of colistimethate resistance
patients with bronchospasm experienced clinically (patients on CMS treatment): 0.6%
